SMILES strings stand for the structures. Activity calls are given as the source filed them. The rule behind the calls is not given here.

The values that follow come from ChEMBL document CHEMBL4428076 (J Med Chem, 2016).

The test system of this experiment is Mus musculus. In words: Antinociceptive activity in CD-1 mouse assessed as increase in reaction time at 5 mg/kg, sc administered on day 6 after KOR1-exon2 antisense oligodeoxynucleotide injection on day 1, 3 and 5 by radiant heat tail flick assay.

With `CN(C(=O)Cc1ccc(Cl)c(Cl)c1)C1CCCCC1N1CCCC1` (stereo unspecified), the result was inactive.
